Values quoted from earlier work as cited in US20120145955A1, “COMPOSITION OF HCFO-1233zd AND POLYOL BLENDS FOR USE IN POLYURETHANE FOAM” (Arkema Inc., priority 2009, published 2012).

Settings: known to the people skilled in the art; cited from earlier work

SMILES: CC(F)(Cl)Cl [HCFC141b]
- solubility in polyols: much more soluble
